Where two headings read alike, the source gives them in different places.
Key:
HIV-1 R5 strain (BaL) = test: microbe, parasite or virus in culture; type: cell-based; conditions: evaluation 48 hpi
Experimental: Untreated cells were treated with the same solvent.

HIV-1 X4 strain (NL4-3) = conditions: for fold less potent than the NDI-MOCs: HIV-1 X4 strain; for SI (CC50/IC50 ratio): X4 strain

In the case of `CN(C)CCCNc1cc2c3c(c(NCCCCCC(=O)OCC4CNCCCNCCNCCN4)cc4c3c1C(=O)N(CCCN(C)C)C4=O)C(=O)N(CCCN(C)C)C2=O` (stereo not drawn) [compound 5], the IC50 (HIV-1 R5 strain (BaL); Human immunodeficiency virus 1, BAL, TZM-bl, administration 0 hpi, MOI 0.3) is reported as 15.1 ± 1.21 µM, the “SI (CC50/IC50 ratio)” value (HIV-1 R5 strain (BaL); administration 0 hpi) is reported as >1.65 and the “SI (CC50/IC50 ratio)” value (HIV-1 R5 strain (BaL); administration 2 hpi) is reported as >1.51. For the same compound, the “fold less potent than the NDI-MOCs” value (HIV-1 X4 strain (NL4-3); 24 h incubation assay) was “about 12 times”, the “fold less potent than the NDI-MOCs” value (HIV-1 X4 strain (NL4-3); 48 h incubation assay) was ~5 times and the “SI (CC50/IC50 ratio)” value (HIV-1 X4 strain (NL4-3); administration 0 hpi, evaluation 24 hpi) was >1.41. For the same compound, the “SI (CC50/IC50 ratio)” value (HIV-1 X4 strain (NL4-3); administration 0 hpi, evaluation 48 hpi) was >13.44, the “SI (CC50/IC50 ratio)” value (HIV-1 X4 strain (NL4-3); administration 2 hpi, evaluation 24 hpi) was >2.07 and the “SI (CC50/IC50 ratio)” value (HIV-1 X4 strain (NL4-3); administration 2 hpi, evaluation 48 hpi) was >13.71.

Source: paper PMC10862543, “Naphthalene Diimide–Tetraazacycloalkane Conjugates Are G-Quadruplex-Based HIV-1 Inhibitors with a Dual Mode of Action” (ACS Infectious Diseases, 2024)
